Experimental data as given in paper PMC9723946 (The Journal of Biological Chemistry, 2022).

Columns and labels:
Experiment in all cases: pull-down
[1] = target: His-tagged full-length G3BP1 F15/33W (human, UniProt Q13283 1-466, F15W | F33W)
[2] = target: His-tagged full-length G3BP1 TripleW (F15W/F33W/F124W) (human, UniProt Q13283 1-466, F15W | F33W | F124W)
[3] = target: His-tagged full-length G3BP1 F33/124W (human, UniProt Q13283 1-466, F33W | F124W)
[4] = target: His-tagged full-length G3BP1 F15W (human, UniProt Q13283 1-466, F15W)
[5] = target: His-tagged full-length G3BP1 F15/124W (human, UniProt Q13283 1-466, F15W | F124W)

reduction of copurification relative to WT [1]: ~98%
reduction of copurification relative to WT [2]: ~98%
reduction of copurification relative to WT [3]: ~98%
reduction of copurification relative to WT [4]: ~98%
reduction of copurification relative to WT [5]: ~98%
B1: cytoplasmic activating/proliferation associated protein 1 (Caprin1), endogenous (natural protein)
chain: MPSATSHSGSGSKSSGPPPPSGSSGSEAAAGAGAAAPASQHPATGTGAVQTEAMKQILGVIDKKLRNLEKKKGKLDDYQERMNKGERLNQDQLDAVSKYQEVTNNLEFAKELQRSFMALSQDIQKTIKKTARREQLMREEAEQKRLKTVLELQYVLDKLGDDEVRTDLKQGLNGVPILSEEELSLLDEFYKLVDPERDMSLRLNEQYEHASIHLWDLLEGKEKPVCGTTYKVLKEIVERVFQSNYFDSTHNHQNGLCEEEEAASAPAVEDQVPEAEPEPAEEYTEQSEVESTEYVNRQFMAETQFTSGEKEQVDEWTVETVEVVNSLQQQPQAASPSVPEPHSLTPVAQADPLVRRQRVQDLMAQMQGPYNFIQDSMLDFENQTLDPAIVSAQPMNPTQNMDMPQLVCPPVHSESRLAQPNQVPVQPEATQVPLVSSTSEGYTASQPLYQPSHATEQRPQKEPIDQIQATISLNTDQTTASSSLPAASQPQVFQAGTSKPLHSSGINVNAAPFQSMQTVFNMNAPVPPVNEPETLKQQNQYQASYNQSFSSQPHQVEQTELQQEQLQTVVGTYHGSPDQSHQVTGNHQQPPQQNTGFPRSNQPYYNSRGVSRGGSRGARGLMNGYRGPANGFRGGYDGYRPSFSNTPNSGYTQSQFSAPRDYSGYQRDGYQQNFKRGSGQSGPRGAPRGRGGPPRPNRGMPQMNTQQVN
